Target: human thrombopoietin receptor (c-mpl) (Homo sapiens, UniProt P40238)
Test: Stimulation of proliferation of thrombopoietin-dependent cell line UT7/EPO-mpl (WST-8)
Settings: human leukemic cell line UT-7/EPO-mpl; 4 days incubation; relative to 10 ng/mL TPO
Method: The response of thrombopoietin receptor to the compound of Synthetic Example 2 of the present invention was assayed using a human leukemic cell line, UT7/EPO-mpl.
UT7/EPO-mpl is a stable transformed cell line obtained by introducing into human leukemic cell line UT7/EPO a vector that induces expression of human thrombopoietin receptor (c-mpl) under control of cytomegalovirus immediate-early promoter by the method of Takatoku et al. (J. Biol. Chem., 272:7259-7263 (1997)). […] These two cell lines were subcultured in IMDM (GIBCO) containing 10% fetal bovine serum (Thermo Electron or BioWest) using a CO2 incubator (5% CO2, 37° C.).
The subcultured cells described above were washed twice with PBS and suspended in IMDM containing 10% fetal bovine serum at a cell density of 6×10^4 cells/ml. The cell suspension was transferred to a 96-well tissue culture plate (CORNING) in 100-μl aliquots. Then either thrombopoietin (Pepro Tech EC, or the compound of Synthetic Example 2 dissolved in dimethyl sulfoxide was diluted 83-fold with IMDM containing 10% fetal bovine serum and added to the aforementioned cell suspension in 20-μl aliquots. The cell suspension was incubated in a CO2 incubator (5% CO2, 37° C.) for 4 days. Cell proliferation was assayed using WST-8 reagent (Kishida Chemical Co., Ltd.) according to instructions by the manufacturer. A 10-μl aliquot of 5 mM WST-8 reagent solution was added to each well of the tissue culture plate, and the plate was incubated at 37° C. for 4 hours. The formazan pigment generated was detected by measuring the absorbance at 450 nm with a 96-well microplate reader (Nihon Molecular Devices, Spectramax 190).
The compounds of the following Synthetic Examples were tested according to the method of Assay Example 1 to determine the concentration of each compound that yields a growth rate corresponding to 50% of the growth of human leukemic cell line UT-7/EPO-mpl observed in the presence of 10 ng/mL TPO (EC50).

Amino acid sequences for entries named in this document (tags omitted). Residues count along the entry.
UniProt P40238, 26-635 limits assumed: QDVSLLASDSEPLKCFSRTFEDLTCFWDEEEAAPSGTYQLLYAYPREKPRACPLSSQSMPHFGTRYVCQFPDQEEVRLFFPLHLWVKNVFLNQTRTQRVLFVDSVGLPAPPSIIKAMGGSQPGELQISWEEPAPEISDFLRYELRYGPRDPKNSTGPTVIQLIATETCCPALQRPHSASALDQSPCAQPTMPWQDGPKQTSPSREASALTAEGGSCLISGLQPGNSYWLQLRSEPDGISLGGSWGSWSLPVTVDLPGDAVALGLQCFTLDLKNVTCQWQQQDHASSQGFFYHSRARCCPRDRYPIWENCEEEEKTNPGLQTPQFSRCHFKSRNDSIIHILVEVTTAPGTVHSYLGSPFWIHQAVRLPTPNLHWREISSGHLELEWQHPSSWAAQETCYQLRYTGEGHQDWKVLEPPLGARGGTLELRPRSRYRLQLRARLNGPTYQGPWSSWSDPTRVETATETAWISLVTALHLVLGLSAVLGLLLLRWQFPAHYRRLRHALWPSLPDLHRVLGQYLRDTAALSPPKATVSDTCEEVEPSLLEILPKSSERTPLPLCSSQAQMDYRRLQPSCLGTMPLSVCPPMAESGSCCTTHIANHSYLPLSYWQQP

EC50 (concentration that yields a growth rate corresponding to 50% of the growth observed in the presence of 10 ng/mL TPO) [ng/mL]	SMILES
3.1	C/C(=N\NC(=O)c1ccc(C(=O)NN2CCN(C)CC2)s1)c1csc(-c2ccc(Cl)c(Cl)c2)c1O
0.37	C/C(=N\NC(=O)c1ccc(C(=O)Cn2ccc(=O)cc2)s1)c1csc(-c2ccc(Cl)c(Cl)c2)c1O
3.3	CC(=NNC(=O)c1ccc(C(=O)N(C)CCC(=O)O)s1)c1csc(-c2ccc(OC(F)(F)F)cc2)c1O
16	CC(=NNC(=S)Nc1ccc2c(c1)OCC(=O)N2)c1csc(-c2ccc(Cl)c(Cl)c2)c1O
2.1	C/C(=N\NC(=O)c1ccc(C(=O)NCC2CCCO2)s1)c1csc(-c2ccc(Cl)c(Cl)c2)c1O (stereo not drawn) [Synthetic Example 2, 5-{1-[5-(3,4-Dichlorophenyl)-4-hydroxythiophen-3-yl]ethylidenehydrazinocarbonyl}thiophene-2-carboxylic acid(tetrahydrofuran-2-ylmethyl)amide]
32	C/C(=N\NC(=S)Nc1ccc2c(c1)OCCO2)c1csc(-c2ccc(Cl)c(Cl)c2)c1O
7.7	CC(=NNC(=S)Nc1ccc(Cl)c(C(=O)NCCC(=O)O)c1)c1nn(C)c(-c2ccc(C(F)(F)F)cc2)c1O
2.9	C/C(=N\NC(=S)Nc1cccc(C(=O)NCCC(N)=O)c1)c1csc(-c2ccc(Cl)c(Cl)c2)c1O
1.5	CC(=NNC(=O)c1ccc(C(=O)NN)s1)c1csc(-c2ccc(Cl)c(Cl)c2)c1O
5.6	CC(=NNC(=O)c1ccc(C(=O)NN2CCCCC2)s1)c1csc(-c2ccc(Cl)c(Cl)c2)c1O
23	C/C(=N\NC(=S)Nc1ccc2c(c1)OCC(=O)N2)c1nn(C)c(-c2ccc(C(F)(F)F)cc2)c1O
3.0	CC(=NNC(=O)c1ccc(C(O)CC(=O)O)cc1)c1csc(-c2ccc(Cl)c(Cl)c2)c1O (stereo not drawn)
16	CC(=NNC(=S)Nc1ccc2c(c1)NC(=O)CO2)c1csc(-c2ccc(Cl)c(Cl)c2)c1O
3.1	CC(=NNC(=S)Nc1cccc(C(=O)NCCC(N)=O)c1)c1nn(C)c(-c2ccc(Cl)c(Cl)c2)c1O
0.40	C/C(=N\NC(=O)c1ccc(C(=O)N2CCC(N3CCCC3)CC2)s1)c1csc(-c2ccc(Cl)c(Cl)c2)c1O
0.27	C/C(=N\NC(=O)c1ccc(C(=O)N2CC(O)C(O)C2)s1)c1csc(-c2ccc(C(F)(F)F)cc2)c1O (stereo not drawn)
2.7	CC(=NNC(=O)c1ccc(C(=O)NCCN2CCCC2)s1)c1csc(-c2ccc(Cl)c(Cl)c2)c1O
2.3	C/C(=N\NC(=O)c1ccc(C(=O)NCCC(=O)O)s1)c1csc(-c2ccc(Cl)c(Cl)c2)c1O
0.35	CC(=NNC(=O)c1ccc(C(=O)NN2CCOCC2)s1)c1csc(-c2ccc(Cl)c(Cl)c2)c1O
2.7	CC(=NNC(=S)Nc1cccc(C(=O)NCCC(N)=O)c1)c1nn(C)c(-c2ccc(C(F)(F)F)cc2)c1O
2.2	CC(=NNC(=O)c1ccc(C(=O)NCC(=O)O)s1)c1csc(-c2ccc(Cl)c(Cl)c2)c1O
